Reference: patent US11400091B2, “AXL kinase inhibitors and use of the same” (Sumitomo Pharma Oncology, Inc., priority 2018, dated 2022)
pEC50, pIC50: −log10 of the molar value.

The chains behind the UniProt entries cited, without tags or fusion partners.
UniProt Q12809, whole entry: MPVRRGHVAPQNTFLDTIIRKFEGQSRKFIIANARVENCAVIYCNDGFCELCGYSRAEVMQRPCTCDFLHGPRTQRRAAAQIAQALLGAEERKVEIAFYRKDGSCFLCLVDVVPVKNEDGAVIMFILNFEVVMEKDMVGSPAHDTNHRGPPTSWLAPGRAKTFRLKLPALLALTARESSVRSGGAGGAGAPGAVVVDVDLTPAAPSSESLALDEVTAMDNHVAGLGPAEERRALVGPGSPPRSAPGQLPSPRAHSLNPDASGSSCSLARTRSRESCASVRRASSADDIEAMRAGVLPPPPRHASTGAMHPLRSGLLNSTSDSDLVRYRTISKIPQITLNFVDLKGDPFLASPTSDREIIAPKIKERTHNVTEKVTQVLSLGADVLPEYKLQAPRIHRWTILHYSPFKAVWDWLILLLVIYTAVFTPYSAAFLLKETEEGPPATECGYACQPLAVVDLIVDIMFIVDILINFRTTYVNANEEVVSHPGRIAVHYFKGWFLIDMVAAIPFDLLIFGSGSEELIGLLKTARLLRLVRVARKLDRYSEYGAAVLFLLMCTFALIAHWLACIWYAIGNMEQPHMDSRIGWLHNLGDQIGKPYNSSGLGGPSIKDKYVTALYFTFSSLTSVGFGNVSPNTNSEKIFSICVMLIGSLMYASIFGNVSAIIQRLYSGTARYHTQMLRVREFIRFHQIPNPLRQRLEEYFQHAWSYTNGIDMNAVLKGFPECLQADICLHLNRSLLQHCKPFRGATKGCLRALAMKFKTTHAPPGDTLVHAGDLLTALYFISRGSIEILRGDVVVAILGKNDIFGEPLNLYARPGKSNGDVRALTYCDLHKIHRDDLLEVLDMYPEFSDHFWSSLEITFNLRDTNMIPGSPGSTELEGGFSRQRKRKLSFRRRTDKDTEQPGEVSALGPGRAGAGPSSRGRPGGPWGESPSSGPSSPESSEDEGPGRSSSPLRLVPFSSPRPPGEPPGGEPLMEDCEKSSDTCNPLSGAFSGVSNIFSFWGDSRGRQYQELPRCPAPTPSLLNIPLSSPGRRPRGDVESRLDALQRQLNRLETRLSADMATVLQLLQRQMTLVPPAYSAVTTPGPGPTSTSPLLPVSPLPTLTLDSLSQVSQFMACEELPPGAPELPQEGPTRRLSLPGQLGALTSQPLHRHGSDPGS
UniProt P33261, whole entry: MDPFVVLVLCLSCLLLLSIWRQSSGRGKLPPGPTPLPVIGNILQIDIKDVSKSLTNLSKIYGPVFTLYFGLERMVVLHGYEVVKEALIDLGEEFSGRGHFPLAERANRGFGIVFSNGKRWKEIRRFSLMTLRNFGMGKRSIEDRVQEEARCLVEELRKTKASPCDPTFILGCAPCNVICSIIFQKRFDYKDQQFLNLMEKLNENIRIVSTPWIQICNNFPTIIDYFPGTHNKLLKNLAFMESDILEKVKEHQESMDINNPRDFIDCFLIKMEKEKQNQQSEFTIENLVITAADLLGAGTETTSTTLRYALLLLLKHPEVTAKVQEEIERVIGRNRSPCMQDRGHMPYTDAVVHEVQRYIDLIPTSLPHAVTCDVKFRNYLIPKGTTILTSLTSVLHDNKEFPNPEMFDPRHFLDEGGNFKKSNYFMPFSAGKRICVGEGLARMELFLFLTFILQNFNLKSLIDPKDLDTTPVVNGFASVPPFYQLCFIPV

What was measured:
[1] = Pharmacokinetic testing of salt forms, oral dosing; assay type: in vivo, Sprague-Dawley rats; conditions: fasted male rats; PO 14.3-18.7 mg/kg (row Dose); mean; tested form: tartrate
[2] = Pharmacokinetic study free base v. tartrate salt, oral gavage; assay type: in vivo, Sprague-Dawley rats; conditions: fasted male rats; PO in 20% solutol; nominal 20 mg/kg; tested form: tartrate
[3] = tested on: 4T1 breast cancer syngraft; test: 4T1 breast cancer syngraft, combination with PD-L1 antibody; conditions: 16 day treatment schedule, tested form: tartrate
[4] = tested on: 4T1 syngeneic (allograft) mouse model for breast cancer; test: 4T1 syngeneic (allograft) model, combination with anti-PD-1 and radiation therapy; conditions: tested form: tartrate
iTregs = conditions: tested form: tartrate
[5] = tested on: 4T1 triple negative breast cancer mouse model; test: ICB-resistant 4T1 syngeneic model, combination with anti-PD-1; conditions: combination with anti-PD-1 versus tartrate salt monotherapy; p<0.05; tested form: tartrate
H1650 NSCLC cell line = test: H1650 cell viability (CellTiter-Glo); assay type: cell-based; conditions: read-out: EC50, cell viability; tested form: tartrate
Slug, E-cadherin = test: EMT marker mRNA and protein expression in NSCLC cells; conditions: following treatment; tested form: tartrate
[6] = tested on: Phospho-AXL (Y702) in Kuramochi cells; test: AXL phosphorylation in Kuramochi cells (western blot); assay type: cell-based; conditions: 8 hrs; tartrate salt 100 nM; Cabozantinib 1 μM; tested form: tartrate
[7] = 28-day repeated oral dose toxicity and toxicokinetic study; conditions: 28 days of repeated oral dosing; tested form: tartrate
[8] = 28-day repeated oral dose toxicity study with 14-day recovery; conditions: end of treatment, tested form: tartrate
H1650 = conditions: tested form: tartrate
ES-2 cells = conditions: tested form: tartrate
[9] = tested on: ES-2 ovarian clear cell carcinoma; conditions: Example 31; day 15; vehicle 7.96 cm; p<0.05; tested form: tartrate
hERG channel = hERG channel (Homo sapiens, UniProt Q12809); conditions: tested form: tartrate
[10] = molecular target: hERG in transfected HEK-293 cells (Homo sapiens, UniProt Q12809); conditions: 1 µM; tested form: tartrate
CYP 2C19 = CYP 2C19 (Homo sapiens, UniProt P33261); conditions: tested form: tartrate
Kuramochi = test: Ovarian cancer cell line viability, dose response; conditions: read-out: IC50 Activity; tested form: tartrate
OVMANA = test: Ovarian cancer cell line viability, dose response; conditions: read-out: IC50 Activity; tested form: tartrate
OVTOKO = test: Ovarian cancer cell line viability, dose response; conditions: read-out: IC50 Activity; tested form: tartrate
Ovcar3 = test: Ovarian cancer cell line viability, dose response; conditions: read-out: IC50 Activity; tested form: tartrate
Ovcar8 = test: Ovarian cancer cell line viability, dose response; conditions: read-out: IC50 Activity; tested form: tartrate
Skov3 = test: Ovarian cancer cell line viability, dose response; conditions: read-out: IC50 Activity; tested form: tartrate
active DCs within tumors = test: Active DCs in tumors by flow cytometry (CD86, CD11c); conditions: 60 mg/kg; compared to vehicle; tested form: tartrate
[11] = Single and 7-day repeated oral dose toxicity and PK study; conditions: up to 1.25 mg/kg/day oral for 7 days; tested form: tartrate

Compound: CN1CCN(Cc2ccc(Nc3ncc(Cl)c(Nc4ccccc4S(=O)(=O)N(C)C)n3)cc2)CC1
- AUC0-24 hours [1]: 581 ng·h/mL
- AUC0-24 hours [2]: 581 ng·h/mL
- tumor growth inhibition (% TGI), combination with anti-PD-L1 ([3]; 60 mg/kg + anti-PD-L1 200 μg/mouse/dose): 87.3%
- tumor growth inhibition (% TGI), single agent ([3]; tartrate salt 60 mg/kg, anti-PD-L1 200 μg/mouse/dose): 67.1%
- tumor growth inhibition (% TGI), combination of all three ([4]; 18 day schedule, 25 mg/kg qd + anti-PD-1 10 mg/kg biw + single dose RT 12 GY): 57.7%
- tumor growth inhibition (% TGI), single agent ([4]; 18 day treatment schedule, tartrate salt 25 mg/kg qd oral, anti-PD-1 10 mg/kg biw ip): 28.4%
- pEC50 (iTregs): 6.61
- tumor growth, combination with anti-PD-1 [5]: statistically significant tumor growth inhibition versus monotherapy
- pEC50 (H1650 NSCLC cell line): 7.41
- increase of E-cadherin expression (Slug, E-cadherin): 1.6 fold
- inhibition of Slug mRNA expression (Slug, E-cadherin): ≤ 3.8 fold
- Phospho-AXL (Y702) level [6]: reduced
- No Observed Adverse Effect Level (NOAEL) [7]: 2 mg/kg/day
- small intestine mucosal injury and inflammation (minimal or mild), dogs affected ([8]; high-dose, control 1 dog): 4
- colonic mucosa injury and inflammation (minimal or mild), animals affected ([8]; high-dose): four
- thymic atrophy, animals affected ([8]; low-dose (0.1 mg/kg/day)): 1 out of 6
- thymic atrophy, animals affected ([8]; mid-dose (0.5 mg/kg/day)): 3 out of 6
- small intestine mucosal injury and inflammation (minimal or mild), dogs affected ([8]; mid-dose): 1
- tumor growth inhibition (% TGI), combination with osimertinib (H1650; 40 mg/kg + osimertinib 20 mpk, daily oral gavage): 140%
- Activity [% TGI (dose level)] (H1650; Lung cancer (H1650, combination with Erlotinib), 25 mg/kg): 139.3(25 mg/kg) %
- pIC50 (ES-2 cells): 7.70
- abdominal circumference [9]: 6.82 cm
- pIC50 (hERG channel): < 6.00
- inhibition [10]: > 50%
- inhibition (CYP 2C19; 10 µM): > 50%
- pIC50 (CYP 2C19): 5.36
- pIC50 (Kuramochi): > 6.00
- pIC50 (OVMANA): > 6.00
- pIC50 (OVTOKO): > 6.00
- pIC50 (Ovcar3): > 6.00
- pIC50 (Ovcar8): > 6.00
- pIC50 (Skov3): 5.00 to 6.00
- percent of activated DCs in tumors cells (active DCs within tumors): increased
- toxicity [11]: no test article treatment-related significant toxicity
